Reference: ChEMBL document CHEMBL5579830, “Design and synthesis of 6-C-alkyl-DMDP type nanomolar inhibitors of β-galactosidase and β-glucosidase based on broussonetine S and related derivatives” (Eur J Med Chem, 2024)

Amino acid sequences for entries named in this document (tags omitted). A change or cut given only in a name is not applied to a line headed by its entry.
UniProt Q42656: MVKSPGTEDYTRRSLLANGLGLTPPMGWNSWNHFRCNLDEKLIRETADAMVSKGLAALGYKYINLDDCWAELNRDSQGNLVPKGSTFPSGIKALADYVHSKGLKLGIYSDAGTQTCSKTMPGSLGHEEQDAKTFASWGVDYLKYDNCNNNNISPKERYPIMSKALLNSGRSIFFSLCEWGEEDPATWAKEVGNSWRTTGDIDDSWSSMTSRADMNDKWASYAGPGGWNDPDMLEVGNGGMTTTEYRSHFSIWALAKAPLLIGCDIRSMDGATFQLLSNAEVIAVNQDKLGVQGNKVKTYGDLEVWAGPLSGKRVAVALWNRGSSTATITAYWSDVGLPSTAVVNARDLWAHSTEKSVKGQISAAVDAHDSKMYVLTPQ

Key:
[1] = target: Alpha-galactosidase (Coffea arabica) (UniProt Q42656); assay: Inhibition of coffee bean alpha-galactosidase using p-nitrophenyl glycoside as substrate assessed as release of p-nitrophenol at 1000 uM by spectrometric analysis relative to control
[2] = target: T1, Alpha-mannosidase (Canavalia ensiformis) (UniProt C0HJB3); assay: Inhibition of jack bean alpha-mannosidase using p-nitrophenyl glycoside as substrate assessed as release of p-nitrophenol at 1000 uM by spectrometric analysis relative to control
T1 sequence (whole entry): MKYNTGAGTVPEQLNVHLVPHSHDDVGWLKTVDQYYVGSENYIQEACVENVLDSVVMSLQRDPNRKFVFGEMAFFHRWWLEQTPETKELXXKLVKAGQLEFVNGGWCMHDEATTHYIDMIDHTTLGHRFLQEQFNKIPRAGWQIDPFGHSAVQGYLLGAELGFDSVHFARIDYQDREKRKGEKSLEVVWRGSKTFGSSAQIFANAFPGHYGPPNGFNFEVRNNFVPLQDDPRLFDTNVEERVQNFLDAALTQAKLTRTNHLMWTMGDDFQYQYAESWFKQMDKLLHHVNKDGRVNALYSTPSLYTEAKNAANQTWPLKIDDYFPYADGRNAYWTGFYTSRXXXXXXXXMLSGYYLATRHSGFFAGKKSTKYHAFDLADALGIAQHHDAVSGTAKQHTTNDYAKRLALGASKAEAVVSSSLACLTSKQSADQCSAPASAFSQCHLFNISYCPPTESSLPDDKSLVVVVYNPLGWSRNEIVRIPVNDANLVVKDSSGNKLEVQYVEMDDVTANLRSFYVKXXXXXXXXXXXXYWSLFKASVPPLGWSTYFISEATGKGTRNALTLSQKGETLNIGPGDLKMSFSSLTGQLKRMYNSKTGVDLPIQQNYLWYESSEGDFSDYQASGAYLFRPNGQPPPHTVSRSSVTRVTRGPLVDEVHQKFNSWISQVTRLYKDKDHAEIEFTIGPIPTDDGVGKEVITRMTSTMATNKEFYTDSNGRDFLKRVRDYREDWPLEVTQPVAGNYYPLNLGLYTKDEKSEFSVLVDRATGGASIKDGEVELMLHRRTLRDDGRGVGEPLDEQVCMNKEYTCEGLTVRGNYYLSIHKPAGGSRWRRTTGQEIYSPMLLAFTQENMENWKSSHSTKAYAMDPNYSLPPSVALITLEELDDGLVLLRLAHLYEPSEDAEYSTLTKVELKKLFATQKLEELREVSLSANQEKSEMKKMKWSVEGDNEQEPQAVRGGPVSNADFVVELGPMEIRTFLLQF

| Structure (SMILES) | inhibition [1] [%] | inhibition [2] [%] |
| --- | --- | --- |
| CCCCCCCCCCC[C@@H](O)[C@H]1N[C@H](CO)[C@@H](O)[C@@H]1O | 0 | 5.5 |
| CCCCCCCCCCCC[C@H](O)[C@H]1N[C@H](CO)[C@@H](O)[C@@H]1O | – | 2.6 |
| CCCCCCCCCCC[C@H](O)[C@H]1N[C@H](CO)[C@@H](O)[C@@H]1O | 0 | 4.4 |
| CCCCCCCCCCCCCC[C@@H](O)[C@H]1N[C@H](CO)[C@@H](O)[C@@H]1O | – | 0.7 |
| CCCCCCCCCCCCCC[C@H](O)[C@H]1N[C@H](CO)[C@@H](O)[C@@H]1O | – | 0.4 |
| CCCCCCCCCCCC[C@@H](O)[C@H]1N[C@H](CO)[C@@H](O)[C@@H]1O | – | 0.2 |
